This note sets out measurements from PubChem BioAssay AID900 (National Center for Advancing Translational Sciences (NCATS), 2007).

The entries are a selection whose mix differs from that of the whole data set. Active and inactive are the calls of the source. The call rests on the fitted dose curve; in most records, active means well fitted inhibition curve with a large enough effect; inconclusive means small, poorly fitted or top-dose-only effect; inactive means flat fitted curve, though single readings scatter.

For this experiment, the target named is Caspase-1 (Homo sapiens) (UniProt P29466). Kind of experiment: qHTS Assay for Allosteric/Competitive Inhibitors of Caspase-1.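 Further: plate controls were vehicle for no effect and no substrate for full effect.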 The following applies: Caspase-1 enzyme, Ac-WEHD-AFC fluorogenic rate; at 57.5 µM (top of the series) unless noted. The text has this:
NIH Molecular Libraries Screening Centers Network [MLSCN]
NIH Chemical Genomics Center [NCGC]
PI Name: Dr. James Wells,
Dr. Enrique Perez-Paya, Dr.Janice Williams, Dr. Dennis Wolan, a person
The caspases (Cysteine Aspartyl Protease) comprise a related family of 14 dimeric proteases that are critical mediators of apoptosis (programmed cell death) and inflammation. The caspases represent an important class of drug targets for stroke, ischemia, cancer and inflammatory diseases. […] One goal of this project was to identify compounds that act as allosteric inhibitors via stabilizing the procaspase form of the enzyme. Previous work in Well's laboratory has shown that such allosteric inhibitors can be identified and these act by binding at the dimer interface of enzyme (Hardy, Lam et al., 2004).
The biochemical assay was configured using purified caspase 1 at a high enzyme concentration to promote formation of the homodimers and thus facilitate the identification of allosteric inhibitors. The overall goal was to identify reversible inhibitors with better drug-like properties than the currently available set of aspartyl-containing peptidomimetics that covalently bind the active site. Caspase 1 was assayed using the profluorescent substrate Ac-WEHD-AFC. After initiation of the assay with substrate the plates were rapidly read using an automated robotic system (Kalypsys, Inc.) to maintain consistent timing. A kinetic mode of detection was used where the initial rate was collected (estimated final product formation was ~10%). Compounds were screened as a concentration-titration series that ranged from 57 uM to 0.7 nM. Below is the protocol used for caspase 1.
NCGC Assay Protocol Summary:
Caspase 1 was prepared in buffer (50 mM HEPES pH 7.5, 50 mM KCl, 200 mM NaCl, 10 mM DTT, 0.1% CHAPS) at a concentration of 66.6 nM and 3 uL was dispensed to all wells using black solid Kalypsys 1536-well plates. 20 nL of DMSO containing compounds was added using a pin-tool (Kalypsys Inc.) to columns 5-48. Then 20 nL of DMSO solution from a control plate was added to columns 1-4. Controls were: Column 1, 16 point titration with each concentration in duplicate (1:1 dilutions in DMSO; final starting concentration was 57 uM) of the caspase 1 inhibitor Ac-WEHD-CHO (Alexis Biochemicals); Column 2, a 16 point titration with each concentration in duplicate of the free AFC fluorophore prepared in DMSO (Alexis Biochemicals), final starting was 40 uM; Column 3 neutral (DMSO only) control; Column 4: DMSO alone, to serve as a negative control (no substrate was added). Then 1 uL of 20 uM the substrate Ac-WEHD-AFC (Alexis Biochemicals) prepared in the same buffer was dispensed to all wells except columns 2 and 4 and the plates were immediately transferred (< 1 min) to the Viewlux. The plates were then exposed using 405 nm excitation/520 nm emission filters for 4 sec and read at 20 sec intervals for 3 min. Final enzyme concentration was 50 nM and the final substrate concentration was 5 uM.
Concentration-response curves were fitted to the data calculated from slope of the linear regression of fluorescent intensity versus time (the rate). The concentration-effect curves were then classified based on curve quality (r2), response magnitude and degree of measured activity. […] Inconclusive compounds had appreciable concentration-dependent effects on both the measured rate and the interpolated basal fluorescence intensity at the start of the reaction but where the basal fluorescent intensity was marginal (e.g. < 10-fold). Inconclusive compounds also encompass highly fluorescent compounds (>100-fold increases in fluorescent intensities values relative to controls) where artificial concentration-dependent decreases in the rate occurred at high compound concentrations due to fluorescent interferences.
Keywords: Caspase 1, proteases, profluorescent, MLSMR, MLSCN, NIH Roadmap, qHTS, NCGC
In general terms: qHTS replaces the single test concentration by a dilution series.
Take `Cc1ccc(C)c(NP(C)(=O)Oc2ccccc2)c1` (stereo unspecified): the activity change, negative = inhibition is inactive: -0.627%. Consider `Cc1ccc([N+](=O)[O-])cc1[N+](=O)[O-]`, for which the activity change, negative = inhibition is inactive: -1.47%. `O=[N+]([O-])c1cccc([N+](=O)[O-])c1`: the activity change, negative = inhibition was inactive: -3.7%.

For `Cc1nc2ccc3ccccc3c2s1.O=[N+]([O-])c1cc([N+](=O)[O-])c(O)c([N+](=O)[O-])c1`, the activity change, negative = inhibition is inactive: -5.06%. For `CCOP(C)(=S)SCC(=O)NC(C)C(=O)O` (stereo unspecified), the activity change, negative = inhibition is inactive: -2.7%. For the molecule `CP(=O)(NC(=O)Nc1ccccc1)Oc1ccccc1` (stereo unspecified), the activity change, negative = inhibition is inactive: -0.181%. As for `CP(=S)(Nn1cnnc1)Oc1ccccc1` (stereo unspecified), the figure is inactive: -1.06%. The figure for `N1=C(c2nnc(-c3nn[nH]n3)nn2)NNN1` is inactive: -1.29% [at 11.5 µM]. As for `COc1ccccc1OP(C)(=O)Nc1ccc(C)cc1` (stereo unspecified), the activity change, negative = inhibition was inactive: 2.05%. For `Cc1ccc(NP(C)(=O)Oc2ccccc2)c(C)c1` (stereo unspecified), the activity change, negative = inhibition was inactive: 0.969%.

As for `O=[N+]([O-])[O-].[NH4+]`, the activity change, negative = inhibition is inactive: -1.98%.

Consider `CP(=O)(Nc1ccccn1)Oc1ccccc1` (stereo unspecified), for which the activity change, negative = inhibition is inactive: 3.02%. As to `Cc1nc2ccc3ccccc3c2o1.O=[N+]([O-])c1cc([N+](=O)[O-])c(O)c([N+](=O)[O-])c1`, the activity change, negative = inhibition was inactive: -8.59%.

Consider `COc1ccccc1OP(C)(=O)Nc1ccc(C)c(C)c1` (stereo unspecified), for which the activity change, negative = inhibition was inactive: -2.28%.

For the molecule `CP(=O)(Oc1ccccc1)N1CCOC1=O` (stereo unspecified), the activity change, negative = inhibition was inactive: -0.285%. As for `COc1ccccc1OP(C)(=O)Nc1c(C)n(C)n(-c2ccccc2)c1=O` (stereo unspecified), the activity change, negative = inhibition is inactive: -0.745%. As to `OCCSCCO`, the activity change, negative = inhibition is inactive: -1.02%. The figure for `N#[O+].[C-]#N.[C-]#N.[C-]#N.[C-]#N.[C-]#N.[Fe+2].[Na+].[Na+]` is inactive: -3.42%. `NNC(NN)NN.n1nc(-c2nn[nH]n2)n[nH]1`: the activity change, negative = inhibition is inactive: -0.24% [at 11.5 µM]. The figure for `Cc1ccccc1NP(C)(=O)Nc1ccccc1C` is inactive: -0.802%; for `CCN(CCCl)Cc1ccccc1C` it is inactive: -0.339%; for `[NH4+].[O-][Cl+3]([O-])([O-])[O-]` it is inactive: -0.99%.

For the molecule `CP(=O)(Nc1ccc2c(c1)OCCO2)Oc1ccccc1` (stereo unspecified), the activity change, negative = inhibition is inactive: -1.25%. As for `CCOP(=O)(CC)OCC`, the activity change, negative = inhibition is inactive: 0.539%.

`CCOP(C)(=S)SCC(=O)NC(C)(CC)C(=O)O` (stereo unspecified): the activity change, negative = inhibition is inactive: -1.24%. On to `Cc1ccc([N+](=O)[O-])c([N+](=O)[O-])c1`, for which the activity change, negative = inhibition is inactive: 1.02%.

For `Cc1c([N+](=O)[O-])cccc1[N+](=O)[O-]`, the activity change, negative = inhibition is inactive: -0.37%. As for `CN(C)CCOC(=O)C(O)(c1ccccc1)C1CCCCC1` (stereo unspecified), the activity change, negative = inhibition was inactive: 0.194%. For the molecule `CCC(C)(OO)OOC(C)(CC)OO` (stereo unspecified), the activity change, negative = inhibition is inactive: -2.2%. For the molecule `Cc1cccc([N+](=O)[O-])c1[N+](=O)[O-]`, the activity change, negative = inhibition was inactive: -0.11%. On to `CP(=O)(Nc1ccccc1F)Oc1ccccc1` (stereo unspecified), for which the activity change, negative = inhibition is inactive: 1.38%.
